Measured values taken from patent publication US20160038446A1, “METHOD FOR IMPEDING SKIN INFLAMMATORY RESPONSE TO AN ENERGY INJURY” (priority 2014, published 2016).

Test system: skin inflammatory response to an energy injury
Test: Effectiveness of the burn treatment as a function of pH and concentration of the lactic acid
Conditions: around 2.35 pH to 2.34 pH

## C[C@H](O)C(=O)O [L-Lactic Acid, L-lactic acid]
  effectiveness for the treatment: ideal
